Laboratory results taken from patent publication US7678812B2, “Aminotetralin-derived urea modulators of vanilloid VR1 receptor” (Janssen Pharmaceutica NV, priority 2002, dated 2010).

Protein sequences, listed by entry. Tags and fused reporters are not part of them.
UniProt Q8NER1, whole entry: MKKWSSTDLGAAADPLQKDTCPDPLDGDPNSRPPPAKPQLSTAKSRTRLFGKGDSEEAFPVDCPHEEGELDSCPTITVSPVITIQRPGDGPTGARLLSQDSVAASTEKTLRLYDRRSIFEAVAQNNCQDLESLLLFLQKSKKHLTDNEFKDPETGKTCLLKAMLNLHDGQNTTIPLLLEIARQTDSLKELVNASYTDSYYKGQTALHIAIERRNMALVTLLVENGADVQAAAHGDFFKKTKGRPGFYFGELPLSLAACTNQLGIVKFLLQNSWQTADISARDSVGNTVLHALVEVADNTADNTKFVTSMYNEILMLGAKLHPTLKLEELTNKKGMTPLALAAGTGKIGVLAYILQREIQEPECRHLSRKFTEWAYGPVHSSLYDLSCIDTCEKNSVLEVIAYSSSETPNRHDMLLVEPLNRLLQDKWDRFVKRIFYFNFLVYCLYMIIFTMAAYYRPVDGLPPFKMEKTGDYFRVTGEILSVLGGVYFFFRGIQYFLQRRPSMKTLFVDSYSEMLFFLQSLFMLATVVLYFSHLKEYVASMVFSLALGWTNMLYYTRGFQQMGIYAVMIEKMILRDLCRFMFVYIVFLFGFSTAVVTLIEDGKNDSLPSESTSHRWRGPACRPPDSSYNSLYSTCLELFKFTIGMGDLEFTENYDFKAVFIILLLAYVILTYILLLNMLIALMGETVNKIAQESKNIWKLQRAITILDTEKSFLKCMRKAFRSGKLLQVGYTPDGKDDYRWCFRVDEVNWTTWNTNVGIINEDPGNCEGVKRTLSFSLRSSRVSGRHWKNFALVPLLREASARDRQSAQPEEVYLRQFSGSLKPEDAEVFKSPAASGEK
UniProt O35433, whole entry: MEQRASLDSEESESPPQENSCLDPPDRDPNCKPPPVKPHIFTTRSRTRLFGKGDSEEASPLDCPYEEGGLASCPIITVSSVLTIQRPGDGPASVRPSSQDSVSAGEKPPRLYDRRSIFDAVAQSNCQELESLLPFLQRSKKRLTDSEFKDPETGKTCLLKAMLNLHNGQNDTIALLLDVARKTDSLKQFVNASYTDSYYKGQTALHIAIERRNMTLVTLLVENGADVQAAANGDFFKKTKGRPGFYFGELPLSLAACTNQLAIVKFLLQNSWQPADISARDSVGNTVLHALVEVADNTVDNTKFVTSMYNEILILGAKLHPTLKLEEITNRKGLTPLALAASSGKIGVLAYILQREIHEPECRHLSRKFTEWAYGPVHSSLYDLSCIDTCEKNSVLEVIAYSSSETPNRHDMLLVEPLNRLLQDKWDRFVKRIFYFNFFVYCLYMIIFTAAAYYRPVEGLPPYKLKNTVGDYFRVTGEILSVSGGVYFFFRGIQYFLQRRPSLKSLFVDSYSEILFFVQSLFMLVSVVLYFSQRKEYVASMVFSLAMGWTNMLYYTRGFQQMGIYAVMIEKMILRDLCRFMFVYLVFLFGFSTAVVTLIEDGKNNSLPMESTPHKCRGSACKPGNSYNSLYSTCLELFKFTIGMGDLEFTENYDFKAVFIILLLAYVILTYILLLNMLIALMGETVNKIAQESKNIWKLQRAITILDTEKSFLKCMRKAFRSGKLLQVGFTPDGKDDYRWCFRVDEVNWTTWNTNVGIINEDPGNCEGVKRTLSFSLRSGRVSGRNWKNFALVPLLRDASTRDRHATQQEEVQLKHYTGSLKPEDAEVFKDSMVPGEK

What was measured:
hVR1 receptors = hVR1 receptors (Homo sapiens, UniProt Q8NER1); test: [3H] RTX binding assay, human VR1; conditions: read-out: hVR1 Ki; inhibition of [3H] RTX binding, membranes of HEK293 cells transfected with human VR1
Rat VR1 = Rat VR1 (Rattus norvegicus, UniProt O35433); test: [3H]-RTX binding assay using rat tissue (spinal cord); conditions: read-out: Rat VR1 Ki, rat spinal cord membranes

Row | Structure (SMILES) | Ki (hVR1 receptors) | Ki (Rat VR1)
1 | C=CCC1c2ccc(OC)cc2CCC1NC(=O)Nc1cccc2cnccc12 (stereo not shown) | 21.3 nM | 
2 | O=C(Nc1cccc2cnccc12)NC1CCc2cc(F)ccc2C1Cc1ccccc1 (single isomer, unassigned) [38b] | 0.72 nM | 
3 | O=C(Nc1cccc2cnccc12)NC1CCc2cc(F)ccc2C1Cc1ccccc1 (single isomer, unassigned) [38c] | 3.59 nM | 
4 | Cc1nccc2c(NC(=O)NC3CCc4cc(F)ccc4C3Cc3ccccc3)cccc12 (single isomer, unassigned) [80a] | 5.32 nM | 
5 | Cc1nccc2c(NC(=O)NC3CCc4cc(F)ccc4C3Cc3ccccc3)cccc12 (single isomer, unassigned) [80b] | 25.1 nM | 
6 | O=C(Nc1cccc2c[n+]([O-])ccc12)NC1CCc2cc(F)ccc2C1Cc1ccccc1 (single isomer, unassigned) [85b] | 50.2 nM | 
7 | COc1ccc2c(c1)CCC(NC(=O)Nc1cccc3cnccc13)C2Cc1ccccc1 (single isomer, unassigned) [87] |  | 53.7 nM
8 | COc1ccc2c(c1)CCC(NC(=O)Nc1cccc3cnccc13)C2Cc1ccccc1 (single isomer, unassigned) [92] |  | 7080 nM
9 | O=C(Nc1cccc2cnccc12)NC1CCc2cc(F)ccc2C1Cc1ccccc1 (single isomer, unassigned) [93] | 3.59 nM | 517 nM
10 | O=C(Nc1cccc2cnccc12)NC1CCc2cc(F)ccc2C1Cc1ccccc1 (single isomer, unassigned) [94] | 0.719 nM | 131 nM
11 | O=C(Nc1cccc2c[n+]([O-])ccc12)NC1CCc2cc(F)ccc2C1Cc1ccccc1 (single isomer, unassigned) [96] | 50.2 nM | 
12 | Cc1nccc2c(NC(=O)NC3CCc4cc(F)ccc4C3Cc3ccccc3)cccc12 (single isomer, unassigned) [102] | 25.1 nM | 
13 | Cc1nccc2c(NC(=O)NC3CCc4cc(F)ccc4C3Cc3ccccc3)cccc12 (single isomer, unassigned) [103] | 5.32 nM | 101 nM
